Measured values as given in US20130039998A1, “COMPOSITIONS OF MODULATORS OF THE WNT/BETA-CATENIN PATHWAY AND BENZAMIDE AND/OR HYDROXAMIC ACID DERIVATIVES TO TREAT BIPOLAR DISORDER” (UNIVERSITY OF WASHINGTON, priority 2008, published 2013).

Chains of the proteins cited; added tags and fusions are not shown. Lines headed by an entry give the natural chain unless they say otherwise; changes in a name come on top.
UniProt O15379: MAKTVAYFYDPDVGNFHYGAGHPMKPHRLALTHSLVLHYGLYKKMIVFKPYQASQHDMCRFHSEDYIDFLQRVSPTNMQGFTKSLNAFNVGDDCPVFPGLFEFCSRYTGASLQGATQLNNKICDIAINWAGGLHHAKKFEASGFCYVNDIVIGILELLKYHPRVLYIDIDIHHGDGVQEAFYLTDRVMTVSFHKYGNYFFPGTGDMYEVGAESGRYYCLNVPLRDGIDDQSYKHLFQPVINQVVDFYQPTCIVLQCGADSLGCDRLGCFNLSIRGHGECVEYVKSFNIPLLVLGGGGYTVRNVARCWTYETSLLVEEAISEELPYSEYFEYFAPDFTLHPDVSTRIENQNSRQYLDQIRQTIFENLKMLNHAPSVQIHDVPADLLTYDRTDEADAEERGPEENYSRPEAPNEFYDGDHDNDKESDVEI

Legend:
[1] = system: pfuBARS control reporter (non-functional TCF elements), HEK-293T cells
HDAC3 = HDAC3 (Homo sapiens, UniProt O15379); assay: biochemical

IC50 (HDAC3)	SMILES	activity in pfuBARS control reporter, compound alone ([1]; alone)	activity in pfuBARS control reporter in the presence of lithium ([1]; in the presence of lithium)
	O=C(CCCCCCC(=O)Nc1ccccc1)NO [SAHA]	no activity	no activity
130 µM	CCCC(CCC)C(=O)O [valproate]		
